Sfp PPTase inh: Sfp phosphopantetheinyl transferase inhibition; Q9F4F7; Biochemical Sfp PPTase activity, qHTS; Potency, µM, for the others: max response, negative = inhibition, most hits filed as inhibitors; 310,000 tested, 3.5% active; AID 1490; active = well fitted inhibition curve with a large enough effect; inconclusive = small, poorly fitted or top-dose-only effect, or another doubt; inactive = no such curve, though single readings can be large or run the other way;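 also: the enzyme is Sfp with the accession as filed and its product quenches rhodamine fluorescence; potency is read from the fitted curve at half-maximal effect; 0% = enzyme reaction without inhibitor and -100% = no enzyme wells; top concentration of the series not given in the record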
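Compounds were incubated with enzyme (final 15 nM) for 15 min at room temperature before substrate addition started the reaction. Fluorescence at 525 nm excitation, 598 nm emission was recorded immediately and after 30 minutes.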
LMNA splice mod: LMNA splicing modulation. actives 0.01% (n = 200,000). Potency, µM (top dose mostly 46.1 µM), inactives show top-dose ratio change, negative = inhibition, usual class: inhibitors. HeLa LMNA splicing GFP/RFP minigene ratio, 48 h; active = well fitted inhibition curve with a large enough effect in the signal ratio, with a control signal flat, not every such curve was filed as active; inconclusive = small, poorly fitted or top-dose-only effect, or effect the other way, or a change in a side signal; the % refers to the signal ratio; also: potency is read from the fitted curve at half-maximal effect; % is scaled to controls: 0 for no effect and ±100 for the full control effect
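S3 HeLa cells stably expressing lamin A-EGFP splicing minigene plus DsRed2, 600 cells/well, 48 h compound exposure at 37C. Laser-scanning cytometry; analysed as GFP (500-530 nm)/RFP (575-640 nm) total intensity ratio; 0.5% DMSO vehicle.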
G9a inh: blocks human histone lysine methyltransferase G9a; Q96KQ7; G9a H3K9 monomethylation, AlphaScreen, 2 h; Potency, µM (doses to about 102 µM), without a hit: at the highest dose activity, negative = inhibition, actives largely listed as inhibitors; actives 8.8% (n = 350,000); AID 504332; also: potency is read from the fitted curve at half-maximal effect; % is scaled to controls: 0 for no effect and ±100 for the full control effect; nearly all actives have a fitted effect of over 75% in size
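Step 1: enzyme (final 20 nM) with compound, 15 min RT. Step 2: substrate peptide 500 nM and SAM 20 uM, 2 h RT. Step 3: anti-H3K9me1 antibody and AlphaScreen beads, 10 min, then plate read.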
JMJD2E inh: blocks human JMJD2E demethylase activity | B2RXH2 | JMJD2E catalytic domain, FDH-coupled NADH fluorescence (FDH is formaldehyde dehydrogenase) | Potency, µM (top dose mostly 57.1 µM), without a hit: top-dose activity change, negative = inhibition, usual class: inhibitors | actives 1.6% (n = 230,000) | AID 2147; active = well fitted inhibition curve with a large enough effect, not every such curve was filed as active; inconclusive = small, poorly fitted or top-dose-only effect, or another doubt; inactive = no such curve, though single readings can be large or run the other way;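 also: potency is read from the fitted curve at half-maximal effect; 0% = wells with enzyme and -100% = buffer wells without enzyme; nearly all actives have a fitted effect of over 50% in size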
ALDH1A1 block: inhibitors of human aldehyde dehydrogenase 1A1 | P00352 | Purified ALDH1A1, NADH fluorescence, propionaldehyde substrate | Potency, µM (doses to about 75.3 µM), without a hit: top-dose activity, negative = inhibition, hits mostly inhibitors | actives 7.3% (n = 220,000) | AID 1030; active = well fitted inhibition curve with a large enough effect, not every such curve was filed as active; inconclusive = small, poorly fitted or top-dose-only effect, or another doubt; inactive = no such curve, though single readings can be large or run the other way;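 also: potency is read from the fitted curve at half-maximal effect; plate controls were no enzyme wells and a reference inhibitor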
miR-21 reporter: raises the signal of a miR-21 reporter | HeLa miR-21 FLuc reporter, luciferase, 48 h | Potency, µM (highest dose often 38.3 µM), inactives show at the highest dose reporter change, positive = more light | 340,000 tested, under 10 active | AID 2288; active = well fitted rising curve with a large enough effect; inconclusive = small, poorly fitted or top-dose-only effect; inactive = no such curve, though single readings can be large or run the other way;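 note: % of control where 0% means no effect; miR-21 action dims this reporter so a rising signal means less miR-21 action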
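Using DMEM plus 10% FBS, HeLa miR-21-FLuc cells are incubated with test compounds (final up to about 40uM) for 48 hours; firefly luciferase signal is then imaged following reagent-mediated lysis.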
An asterisk follows results filed as active; ? = inconclusive; nt = no result given; [ ] = dose if it differs, or a comment. In the library only some 13% were active in any assay of this set; here they are far more common. Unless noted, calls follow the shape of the dose curve; as a rule, active = well fitted curve in the direction sought with a large enough effect; inconclusive = small, poorly fitted or top-dose-only effect, or another doubt; inactive = no such curve, though single readings can be large; an effect the other way counts as inactive or inconclusive.

1. O=C(CCc1nc2ccccc2[nH]1)Nc1ccc2c(c1)OCO2
2. COc1ccc(-c2nc(SCC(=O)Nc3ccc4c(c3)OCCO4)c(-c3ccccc3)[nH]2)cc1
3. O=C(CSc1nc(-c2ccccc2)[nH]c1-c1ccccc1)Nc1ccc2c(c1)OCO2
4. COc1cc(-c2nc(SCC(=O)Nc3ccc4c(c3)OCO4)c(-c3ccccc3)[nH]2)cc(OC)c1OC
5. O=C(CCc1nc2ccccc2[nH]1)NCc1ccc2c(c1)OCO2
6. COc1ccc(-c2[nH]c(-c3cccc(OC)c3)nc2SCC(=O)Nc2ccc3c(c2)OCO3)cc1
7. CCCC/C=C/[C@H](c1ccccc1)[C@H](CO)Cc1ccccc1
8. COc1ccc(C(=O)N2CCN(Cc3ccccc3C(F)(F)F)CC2)cc1

compound no. | 1 | 2 | 3 | 4 | 5 | 6 | 7 | 8
Sfp PPTase inh | -6.1% | nt | nt | nt | -3.6% | nt | 7.4% | -9.9%
LMNA splice mod | 12.8% | nt | nt | nt | 2.9% | nt | nt | nt
G9a inh | 0.1%[12.7 µM] | -11.7%[59 µM] | 22.4µM* | 11.2µM* | -127.0% | 10µM* | nt | 20µM*
JMJD2E inh | -8.3% | nt | nt | nt | 6.7% | nt | nt | nt
ALDH1A1 block | 10µM* | nt | nt | nt | -8.4% | nt | nt | nt
miR-21 reporter | -22.3% | 24.6% | ? | 21.7% | -3.3% | 29.9% | nt | -1.9%

9. COc1ccc(-c2[nH]ncc2CN(C)C(C)c2ccncn2)c(F)c1 (stereo not given)
10. COc1cccc(C(=O)N2CCN(Cc3cn[nH]c3-c3ccc(F)cc3F)CC2)c1
11. COc1cccc(C(=O)N2CCN(Cc3ccccc3C(F)(F)F)CC2)c1
12. O=C(c1ccccc1)N1CCN(Cc2ccccc2C(F)(F)F)CC1
13. COc1cccc(C(=O)N2CCN(Cc3ccccc3Br)CC2)c1
14. COc1ccc(C(=O)N2CCN(Cc3cn[nH]c3-c3ccc(OC)cc3F)CC2)cc1
15. CCN(Cc1ccncc1)Cc1cn[nH]c1-c1ccc(OC)cc1F
16. Cc1ccc2c(c1)c1c(c(=O)n(-c3cccc(Cl)c3)c(=O)n1CC(=O)N1CCCC1)n2C

compound no. | 9 | 10 | 11 | 12 | 13 | 14 | 15 | 16
Sfp PPTase inh | 8.7% | 14.2% | 56.2µM* | ? | -38.3% | 5.5% | 6.1% | nt
LMNA splice mod | nt | nt | ? | -0.9%[46 µM] | nt | nt | nt | nt
G9a inh | nt | ? | 3.55µM* | ? | nt | -10.9% | 50.1µM* | -3.8%[59 µM]
JMJD2E inh | -2.3% | 3.5% | ? | ? | nt | 0.8% | ? | nt
ALDH1A1 block | ? | ? | ? | ? | nt | 1µM* | 14.1µM* | nt
miR-21 reporter | 0.5% | ? | 6.9% | 2.6% | 0.6% | 2.4% | -1.0% | -0.4%

17. O=C(O)/C(Cc1ccnc2ccccc12)=N\O
18. O=C(O)C(Cc1cn[nH]n1)=NO
19. COc1ccc(C2NCCc3c2[nH]c2ccccc32)cc1COc1ccc(F)cc1 (stereo not given)
20. COc1ccc(C2NCCc3c2[nH]c2ccccc32)cc1CN1CCc2cc(OC)c(OC)cc2C1C (stereo not given)
21. COc1ccc(C2NC(C(=O)O)Cc3c2[nH]c2ccccc32)cc1CN1CCN(c2ccc(F)cc2)CC1 (stereo not given)
22. CC(=O)Nc1c(I)cc(I)c(C(=O)O)c1I
23. S=c1[nH]nc(-c2c[nH]c3ccccc23)o1
24. Oc1cc2ccccc2cc1-c1n[nH]c(=S)o1

compound no. | 17 | 18 | 19 | 20 | 21 | 22 | 23 | 24
Sfp PPTase inh | nt | 79.4µM* | 44.7µM* | -17.0% | 7.5% | 11.7% | -14.0% | -13.1%
LMNA splice mod | nt | nt | -18.4% | nt | -0.9%[46 µM] | -7.5% | nt | ?
G9a inh | nt | 6.31µM* | ? | 44.7µM* | 27.8%[12.7 µM] | -41.6%[2.33 µM] | ? | 3.98µM*
JMJD2E inh | nt | ? | 2.9% | 0.1% | ? | 0.7% | nt | ?
ALDH1A1 block | -3.4%[13.5 µM] | nt | 1.9% | nt | nt | 7.7% | nt | ?
miR-21 reporter | nt | 0.3% | ? | 5.5% | 5.2% | nt | -13.9% | -26.4%

From compound 23 up to 24, as listed above:
23. S=c1[nH]nc(-c2c[nH]c3ccccc23)o1
24. Oc1cc2ccccc2cc1-c1n[nH]c(=S)o1

compound no. | 23 | 24
Sfp PPTase inh | -14.0% | -13.1%
LMNA splice mod | nt | ?
G9a inh | ? | 3.98µM*
JMJD2E inh | nt | ?
ALDH1A1 block | nt | ?
miR-21 reporter | -13.9% | -26.4%

(listing goes on)
25. Cc1cc(-c2n[nH]c(=S)o2)c(C)n1-c1ccccc1
26. CCOc1ccc(OCC)c(NC(=O)Cn2ncc3c4ccccc4n(Cc4ccccc4)c3c2=O)c1
27. CC(=O)N(Cc1ccc(F)cc1)Cc1nc2ccccc2c(=O)[nH]1
28. CS(=O)(=O)N(Cc1ccc(F)cc1)Cc1nc2ccccc2c(=O)[nH]1
29. CC(C)c1ccc(CN2CCC(C(=O)NCc3cccnc3)CC2)cc1

compound no. | 25 | 26 | 27 | 28 | 29
Sfp PPTase inh | 6.3% | nt | 7.4% | 5.9% | 79.4µM*
LMNA splice mod | 2.3% | nt | ? | -2.5% | 11.1%
G9a inh | 3.98µM* | 9.6%[59 µM] | -2.8% | -4.0%[12.7 µM] | 31.6µM*
JMJD2E inh | -20.7% | nt | 7.5% | 9.7% | 3.9%
ALDH1A1 block | 3.55µM* | nt | 5.4% | 25.1µM* | ?
miR-21 reporter | -38.2% | -4.4% | 0.8% | -9.7% | -3.5%

Taken from above:
`CC(C)c1ccc(CN2CCC(C(=O)NCc3cccnc3)CC2)cc1` | miR-21 reporter: -3.5%
`CC(=O)N(Cc1ccc(F)cc1)Cc1nc2ccccc2c(=O)[nH]1` | JMJD2E inh: 7.5%
`Cc1cc(-c2n[nH]c(=S)o2)c(C)n1-c1ccccc1` | ALDH1A1 block: 3.55µM*

Source: PubChem BioAssay (National Center for Advancing Translational Sciences (NCATS))
